Assay results taken from ChEMBL document CHEMBL6078633, “Covalent Inhibitors of S100A4 Block the Formation of a Pro-Metastasis Non-Muscle Myosin 2A Complex” (J Med Chem, 2024).

The chains behind the UniProt entries cited, without tags or fusion partners. Where a name states a change or a piece, a line headed by the entry shows the natural chain unless it says otherwise.
UniProt P26447: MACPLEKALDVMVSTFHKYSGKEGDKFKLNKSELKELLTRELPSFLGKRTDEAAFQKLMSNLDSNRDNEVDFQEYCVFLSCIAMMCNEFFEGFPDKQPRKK

How the values were obtained:
Protein S100-A4 = Protein S100-A4 (Homo sapiens, UniProt P26447)
[1] = Inhibition of S100A4-NMII interaction (unknown origin) by HTRF analysis; parameters: species or system Homo sapiens
Procedure, shortened: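 TR-FRET peptide-displacement assays run in parallel: S100A4 with MPN (NMII-mimicking) peptide, and S100A11 with AnII-mimicking peptide, both with 1 mM calcium. Duplicate dose-response in two independent experiments; top concentration 100 μM or 48.75 μM depending on series. IC50 fitted from percentage inhibition against solvent controls.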

Kobs (Protein S100-A4) | IC50 [1] [nM] | SMILES
22 10^-4/s | – | O=C(Nc1cccc(Cl)c1)[C@H]1C[C@H](c2ccccc2)CN1C(=O)CCl
– | 380 | O=C(NC1CCCc2ccccc21)[C@H]1C[C@H](c2ccccc2)CN1C(=O)CCl (some centres not stated)
